Experimental data published in patent US11091488B2 (MISSION THERAPEUTICS LIMITED, priority 2015, dated 2021).

Chains of the proteins cited; added tags and fusions are not shown. Residues count along the entry.
UniProt Q70CQ3, 57-517 limits assumed: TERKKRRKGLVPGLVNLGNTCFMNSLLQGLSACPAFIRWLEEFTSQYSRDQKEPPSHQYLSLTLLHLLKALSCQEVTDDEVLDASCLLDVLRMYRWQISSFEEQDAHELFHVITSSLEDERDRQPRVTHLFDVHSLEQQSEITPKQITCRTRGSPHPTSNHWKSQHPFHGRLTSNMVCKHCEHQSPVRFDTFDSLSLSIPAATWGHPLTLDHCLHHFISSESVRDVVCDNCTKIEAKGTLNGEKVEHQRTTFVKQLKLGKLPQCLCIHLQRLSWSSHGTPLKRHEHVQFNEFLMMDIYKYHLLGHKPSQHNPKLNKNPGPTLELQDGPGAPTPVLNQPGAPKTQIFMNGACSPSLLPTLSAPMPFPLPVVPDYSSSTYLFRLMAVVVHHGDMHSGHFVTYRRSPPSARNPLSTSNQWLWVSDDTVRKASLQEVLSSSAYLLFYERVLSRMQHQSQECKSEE

Molecular target: USP30 (Homo sapiens (Human), UniProt Q70CQ3)
Assay: USP30 biochemical IC50 assay
Settings: read-out: IC50 range; fluorescence polarisation, TAMRA labelled peptide linked to ubiquitin; 30 min pre-incubation, read after 2 hr

## Cn1c2ccccc2c2cc(N3CCN([C@@H]4CCN(C#N)C4)S3(=O)=O)ccc21
  IC50: < 100 nM
